Chains of the proteins cited; added tags and fusions are not shown.
UniProt P03372, whole entry: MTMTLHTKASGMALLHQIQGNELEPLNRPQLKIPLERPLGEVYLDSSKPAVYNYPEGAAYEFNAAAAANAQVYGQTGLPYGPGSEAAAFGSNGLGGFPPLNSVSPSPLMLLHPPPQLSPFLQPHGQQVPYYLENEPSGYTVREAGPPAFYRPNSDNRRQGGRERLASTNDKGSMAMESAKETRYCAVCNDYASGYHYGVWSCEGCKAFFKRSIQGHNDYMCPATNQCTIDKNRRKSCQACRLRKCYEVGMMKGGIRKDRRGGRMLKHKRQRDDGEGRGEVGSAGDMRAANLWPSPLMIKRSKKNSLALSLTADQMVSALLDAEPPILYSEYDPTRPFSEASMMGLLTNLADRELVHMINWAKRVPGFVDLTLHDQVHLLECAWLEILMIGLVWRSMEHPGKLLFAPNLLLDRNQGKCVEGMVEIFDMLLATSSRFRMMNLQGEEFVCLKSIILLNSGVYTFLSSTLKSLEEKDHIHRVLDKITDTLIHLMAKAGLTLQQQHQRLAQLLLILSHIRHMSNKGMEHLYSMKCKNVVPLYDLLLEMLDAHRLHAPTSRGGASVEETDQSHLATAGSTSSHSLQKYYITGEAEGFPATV

In patent US20240190880A1 (THE REGENTS OF THE UNIVERSITY OF MICHIGAN, priority 2021, published 2024):

Biological target: ER (Homo sapiens, UniProt P03372)
Assay: ER degradation activity, in-cell western blot analysis in T47D cells
Conditions: read-out: Potency (DC50), 16 hours, Table A does not say which cell line (T47D or MCF7)

Question: With `O=C1CCC(N2C(=O)c3cc4c(cc3C2=O)CN(CC2(F)CCN(C(=O)C3CCN(c5ccc([C@@H]6c7ccc(O)cc7CC[C@@H]6c6ccccc6)cc5)CC3)CC2)C4)C(=O)N1` (stereo partly shown) as the compound, how does the DC50 read?
Answer: > 0.1 µM
